From PubChem BioAssay (NCI)
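Assay format: 96-well plates, 48-hour exposure. TGI is the concentration that stops growth completely.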

System: NCI-H23 lung
Assay: growth of human tumour cells (NCI), 48 h

O=C(NC(=O)c1cn(C2OC(CO)C(O)C2O)c(=O)[nH]c1=O)OCc1ccccc1 (stereo unspecified)
TGI: > 100 µM
